## AlphaSeq binding of Ab-95 light chain variants to a spike HR2 peptide

Antigen: PDVDLGDISGINAS, a 14-residue peptide of the SARS-CoV-2 spike HR2 region.

Parent scFv Ab-95: VH joined to VL by three GGGGS repeats. Changes lie in the light chain CDRs alone.
VH: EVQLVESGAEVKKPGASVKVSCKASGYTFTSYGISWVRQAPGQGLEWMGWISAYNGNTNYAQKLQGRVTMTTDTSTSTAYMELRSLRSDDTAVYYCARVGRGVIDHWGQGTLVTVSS
VL: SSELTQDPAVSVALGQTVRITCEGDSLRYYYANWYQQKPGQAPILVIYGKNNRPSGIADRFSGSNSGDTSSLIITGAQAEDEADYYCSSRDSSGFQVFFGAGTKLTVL

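The starting antibody came from a phage panning campaign against this peptide. The library (AAYL52) carries one to three amino acid substitutions per variant, with no insertions or deletions. In AlphaSeq, yeast of one mating type display the scFv and yeast of the other type display the target. Mating (16 h, 30 °C) was followed by selection of diploids and sequencing of their barcodes. Read counts were normalised to the haploid input and turned into Kd by a linear fit to BCL2-family pairs of known affinity, for each replicate. Each pool was mated in three replicate cultures.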

Positions count from residue 1 of the parent VL; D25A puts A in place of D. Each Kd is an estimate from the mating assay, the geometric mean of the replicates in which the pair was seen; lower is stronger. A pair that was not seen in any replicate is written "no signal"; this usually means weak binding, but a binder can also be missed. As a blank, each scFv also met three strains without target: over library AAYL52, 28% of these pairings were detected, typically at 8.2 µM and seldom below 800 nM. In this assay the parent's reference entry averaged 200 nM; its copy inside this library read 180 nM.

| changes | Kd (apparent) | detected |
|---|---|---|
| D25A/N51L | 3.5 µM | 3/3 |
| N33S/N52G | 1.3 µM | 3/3 |
| E23I/S88T | 3.3 µM | 3/3 |
| N51F/R53I/G94R | 18 µM | 1/3 |
| A32G/S55Y/S89H | no signal | 0/3 |
| N52C/R53D/G94P | no signal | 0/3 |
| G49S/S88Y/D91N | 2.0 µM | 2/3 |
| E23I/N33V | 12 µM | 2/3 |
| S93I/G94Y/F98A | no signal | 0/3 |
| Y31S/N33C/N52H | 20 µM | 2/3 |
| G24L/D25P/G94C | 26 µM | 3/3 |
| N51F/R53H/Q96V | no signal | 0/3 |
| D25E/S89I/S92V | 2.2 µM | 3/3 |
| E23P/Q96N | no signal | 0/3 |
| N51S/S92I/V97D | 160 nM | 3/3 |
| Y31M/N52A/R53I | 1.2 µM | 3/3 |
| N33V/R53I | 47 µM | 2/3 |
| R28Q/A32G/S89C | 1.9 µM | 3/3 |
| G24H/S88R/G94N | 3.6 µM | 3/3 |
| A32W/K50W/G94K | 15 µM | 1/3 |
| G24F/Y29V/K50R | 4.5 µM | 3/3 |
| N52C/S55L/V97A | 39 µM | 2/3 |
| G24N/N51F/S92V | no signal | 0/3 |
| Y31H/K50W/S88W | 19 µM | 3/3 |
| L27Q/S89P/F95D | 220 nM | 3/3 |
| N33V/D91E/F98S | 3.3 µM | 3/3 |
| Y29V/S89D/D91C | 320 µM | 2/3 |
| G24N/N52F | no signal | 0/3 |
| S93A/G94D/F95R | 3.6 µM | 3/3 |
| R28T/Y29P | 440 nM | 3/3 |
| N52F/R53S/P54V | no signal | 0/3 |
| Y31D/A32W/R90V | 8.2 µM | 2/3 |
| Y30S/S88P/V97M | 14 µM | 1/3 |
| G49S/S93W/F98Q | 250 µM | 2/3 |
| A32K/F95W/Q96E | 39 µM | 3/3 |
| P54L/S55T/S93R | 7.5 µM | 3/3 |
| P54T/S88A | 6.7 µM | 3/3 |
| G49D/K50Q/S88Y | 4.8 µM | 1/3 |
| D25M/G49E/F95G | 6.1 µM | 3/3 |
| D25T/L27Y/F98I | 5.7 µM | 2/3 |
| G24L/S88M/S92V | 2.0 µM | 3/3 |
| S26D/N52Q/F95A | 280 nM | 3/3 |
| Y29P/S93V/Q96V | 92 µM | 1/3 |
| R28W/F98W | 3.0 µM | 3/3 |
| G24T/S92Q/G94W | no signal | 0/3 |
| G49S/S89H | 12 µM | 1/3 |
| G24W/Y29N/R90F | 1.3 µM | 1/3 |
| R28L/Y31I/P54N | 23 µM | 1/3 |
| K50C/F95L | 7.4 µM | 1/3 |
| R53M/S89W/F95W | no signal | 0/3 |
| N33Q/R53W/S89Y | 1.7 µM | 2/3 |
| R28S/S89N/D91H | 1.2 µM | 3/3 |
| A32T/K50R/N51T | no signal | 0/3 |
| L27S/S93M/F95N | 8.4 µM | 2/3 |
| D25C/P54Y/G94S | 880 µM | 1/3 |
| D25P/N52E/Q96A | 230 nM | 3/3 |
| E23K/Y31C/R90T | 130 µM | 1/3 |
| Y31F/N51G/Q96H | 240 nM | 3/3 |
| S26T/S55L/Q96D | 2.3 µM | 3/3 |
| S26N/A32N/F95N | 560 nM | 1/3 |
| Y29L/S92E/F98P | 1.9 µM | 3/3 |
| R28K/G49R/F95I | 350 µM | 1/3 |
| D25W/P54W/Q96F | 2.7 µM | 3/3 |
| S26A/P54S/V97I | 3.8 µM | 3/3 |
| D25R/K50D/D91I | 170 nM | 3/3 |
| Y30D/N33H/R90T | 12 µM | 2/3 |
| N52S/S92P/V97S | 4.0 µM | 3/3 |
| Y29G/D91V | 270 µM | 1/3 |
| L27G/S88A/R90A | 480 µM | 1/3 |
| Y29P/P54R/S89T | 8.7 µM | 2/3 |
| G24A/R90G/D91T | 64 µM | 2/3 |
| S89N/F98P | 3.8 µM | 2/3 |
| N52F/R90E/S92A | 1.0 µM | 1/3 |
| S55D/S93A | 190 nM | 3/3 |
| S89E/V97N | 3.0 µM | 3/3 |
| G24S/Y30A/S93H | 400 nM | 3/3 |
| R28Q/S88Y/R90M | 1.9 µM | 3/3 |
| D91E/S92L | 9.4 µM | 1/3 |
| Y29S/D91Q/F95I | 530 nM | 3/3 |
| D25E/S89M/Q96E | 380 nM | 3/3 |

Data: MIT Lincoln Laboratory AlphaSeq set, Engelhart et al. 2022, doi:10.1038/s41597-022-01779-4, as distributed in FLAb.